Results taken from patent publication US6087376A (priority 1998, dated 2000).

Protein sequences, listed by entry. Tags and fused reporters are not part of them.
UniProt Q01827, whole entry: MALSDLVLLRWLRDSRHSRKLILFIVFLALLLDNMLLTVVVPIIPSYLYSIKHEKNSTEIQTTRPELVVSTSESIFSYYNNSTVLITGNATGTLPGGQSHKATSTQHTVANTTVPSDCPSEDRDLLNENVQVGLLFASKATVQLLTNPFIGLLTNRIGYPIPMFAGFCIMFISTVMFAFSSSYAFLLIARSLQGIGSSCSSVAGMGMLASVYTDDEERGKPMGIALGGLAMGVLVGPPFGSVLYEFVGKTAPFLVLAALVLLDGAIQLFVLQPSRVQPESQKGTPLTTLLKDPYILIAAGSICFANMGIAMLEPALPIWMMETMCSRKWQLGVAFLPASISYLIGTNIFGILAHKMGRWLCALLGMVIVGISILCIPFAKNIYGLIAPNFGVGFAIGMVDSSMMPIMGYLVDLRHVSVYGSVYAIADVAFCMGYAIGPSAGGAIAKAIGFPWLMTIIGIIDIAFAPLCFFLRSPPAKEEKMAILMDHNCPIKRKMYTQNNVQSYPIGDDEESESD

Assays:
[1] = target: T1, synaptic vesicular monoamine transporter (VMAT2), rat striatal synaptic vesicles (Rattus norvegicus, UniProt Q01827); assay: [3H]DA uptake assay, striatal synaptic vesicles; type: biochemical
T1 construct: from tissue; host or cells: rat striatum, synaptic vesicles
Experimental: The homogenate was then centrifuged at 2,000×g for 10 min at 4° C. and the resulting supernatant was centrifuged at 10,000×g for 30 min at 4° C. Synaptosomes (buffy coat) were separated from the underlying mitochondria and cellular debris (reddish pellet) by gentle swirling in 2 mL of 0.32 M sucrose. The enriched synaptosome fraction (2.0 mL) was subjected to osmotic shock by addition of 7 mL distilled H2 0 and was homogenized with 5 up and down strokes of the TEFLON pestle. The osmolarity was restored by the addition of 900 μL of 0.25 M HEPES and 900 μL of 1.0 M neutral potassium-tatrate buffer (pH 7.5) followed by a 20 min centrifugation (20,000×g at 4° C.). The supernatant was then centrifuged for 60 min (55,000×g at 4° C.).
Samples were rapidly filtered through Whatman GF/F filters using the Brandel cell harvester.
Inhibition of synaptosomal and vesicular [^3 H]DA uptake were analyzed by repeated-measures, one-way ANOVA, and by an iterative nonlinear least-squares curve-fitting program (GraphPAD-PRIZM; GraphPAD, San Diego, Calif.) to obtain IC50 values. Dunnett's post hoc test was used to compare treatment means to a single control mean. Also, Duncan's New Multiple Range Test or Fisher's LSD post hoc analysis were used to compare pairs of treatment means. Duncan's New Multiple Range Test was used when significant one-way ANOVA's were obtained or when significant main effects were obtained in the two-way ANOVA's. Fisher's LSD post hoc analysis is a more conservative test, which takes into account error which cumulates during multiple comparisons of pairs of means. Fisher's LSD analysis was used when the interaction term was significant in the two-way ANOVAs, specifically in the post hoc analysis of drug×time interactions. Statistical significance was reached when P<0.05 (two-tailed, unless otherwise indicated).

[2] = target: T2, vesicular monoamine transporter-2 (VMAT2), DTBZ/TBZ site, rat striatal vesicle membranes (Rattus norvegicus, UniProt Q01827); assay: [3H]DTBZ binding to rat striatal vesicles
T2 construct: from tissue; host or cells: rat striatum, synaptic vesicles

## COc1cc2c(cc1OC)C1CC(=O)C(CC(C)C)CN1CC2 (centres unmarked) [Tetrabenazine]
[1]
  concentration giving complete inhibition of vesicular [3H]DA uptake: 1 µM
  lowest concentration to produce significant inhibition of vesicular [3H]DA uptake: 0.07 µM
[1]; tetrabenazine, read-out: IC50, inhibition of striatal vesicular [3H]DA uptake
  IC50: 77.7 ± 1.3 nM

## COc1cc2c(cc1OC)C1CC(O)C(CC(C)C)CN1CC2 (centres unmarked) [[3H]DTBZ]
[2]; 0.5-10 nM [3H]DTBZ
  specific binding as share of total binding: 60-80%
[2]; 0.5-10 nM, 10 min, 25° C.
  Bmax, [3H]DTBZ binding (Scatchard): 8.68 pmol/mg protein

## CN1[C@@H](CC(=O)c2ccccc2)CCC[C@H]1C[C@H](O)c1ccccc1 [Lobeline, 2-[G-(β-hydroxyphenethyl)-1-methyl-2-piperidyl]-acetophenone]
[1]
  concentration giving complete inhibition of vesicular [3H]DA uptake: 10 µM
  lowest concentration to produce significant inhibition of vesicular [3H]DA uptake: 0.3 µM
[2]; 2 nM [3H]DTBZ
  lowest concentration to significantly inhibit [3H]DTBZ binding: 0.3 µM
